Measurements as given in patent US20240025949A1, “Beta-Arrestin Effectors and Compositions and Methods of Use Thereof” (Trevena, Inc., priority 2021, published 2024).

Chains of the proteins cited; added tags and fusions are not shown.
UniProt P25095, whole entry: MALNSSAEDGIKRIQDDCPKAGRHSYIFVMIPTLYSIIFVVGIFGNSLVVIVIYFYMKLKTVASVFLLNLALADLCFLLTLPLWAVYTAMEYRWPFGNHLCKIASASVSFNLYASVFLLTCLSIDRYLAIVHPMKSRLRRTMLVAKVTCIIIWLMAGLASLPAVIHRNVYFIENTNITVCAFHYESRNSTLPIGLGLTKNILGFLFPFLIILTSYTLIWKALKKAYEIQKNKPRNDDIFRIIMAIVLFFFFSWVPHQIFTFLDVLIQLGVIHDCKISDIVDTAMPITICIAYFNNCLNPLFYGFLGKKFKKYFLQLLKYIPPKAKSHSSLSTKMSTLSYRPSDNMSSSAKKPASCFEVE

Key:
Assay type in all cases: cell-based
human AT1R [1] = biological target: T1, human AT1R (Homo sapiens, UniProt P30556); experiment: PathHunter β-arrestin-2 recruitment assay, human AT1R; details: PathHunter β-arrestin HEK293 cells
T1 construct: ProLink (β-galactosidase enzyme-donor fragment, from the pCMV-ProLink vector)

rat AT1aR [2] = biological target: T2, rat AT1aR (Rattus norvegicus, UniProt P25095); experiment: PathHunter β-arrestin-2 recruitment assay, rat AT1aR; details: PathHunter β-arrestin HEK293 cells
T2 construct: ProLink (β-galactosidase enzyme-donor fragment, from the pCMV-ProLink vector)

rat AT1aR [3] = biological target: T2, rat AT1aR; experiment: IP1 accumulation assay (IP-One Tb), rat AT1aR; details: cells expressing rat AT1aR
human AT1R [4] = biological target: T1, human AT1R; experiment: IP1 accumulation assay (IP-One Tb), human AT1R; details: cells expressing human AT1R; for human AT1R IP One EC50 (M): inactive = EC50 greater than 10 uM
[5] = inactive = EC50 greater than 10 uM

| SMILES | human AT1R b-arrestin2 Max (%) (human AT1R [1]) | rat AT1aR b-arrestin2 Max (%) (rat AT1aR [2]) | rat AT1aR IP One Max (%) (rat AT1aR [3]) | human AT1R IP One EC50 (M) (human AT1R [4]) | rat AT1aR IP One EC50 (M) (rat AT1aR [3]; [5]) | EC50 (rat AT1aR [3]; [5]) [µM] | human AT1R IP One Max (%) (human AT1R [4]) |
| --- | --- | --- | --- | --- | --- | --- | --- |
| CC[C@H](C)[C@@H]1NC(=O)[C@H](Cc2ccc(O)cc2)NC(=O)[C@H](C(C)C)NC(=O)[C@H](Cc2ccccc2)NC(=O)[C@@H]2CCCN2C(=O)[C@H](Cc2c[nH]cn2)NC(=O)[C@H]([C@@H](C)CC)NC(=O)[C@H](Cc2ccc(O)cc2)NC(=O)[C@H](C(C)C)NC(=O)[C@H](Cc2ccccc2)NC(=O)[C@@H]2CCCN2C(=O)[C@H](Cc2c[nH]cn2)NC(=O)[C@H]([C@@H](C)CC)NC(=O)[C@H](Cc2ccc(O)cc2)NC(=O)[C@H](C(C)C)NC(=O)[C@H](Cc2ccccc2)NC(=O)[C@@H]2CCCN2C(=O)[C@H](Cc2c[nH]cn2)NC1=O [compound 37] | 62.3 | 60.7 | 14.7 | inactive |  |  |  |
| CC[C@H](C)[C@H](NC(=O)[C@H](Cc1ccc(O)cc1)NC(=O)[C@@H](NC(=O)[C@H](CCCNC(=N)N)NC(=O)[C@@H](C)NC)C(C)C)C(=O)N[C@@H](Cc1c[nH]cn1)C(=O)N1CCC[C@H]1C(=O)N[C@H](C)C(=O)O [compound 82] | 38.3 | 60.6 |  | inactive | Inactive |  |  |
| CNCC(=O)N[C@@H](CCCNC(=N)N)C(=O)N[C@H](C(=O)N[C@@H](Cc1ccc(O)cc1)C(=O)N[C@@H](Cc1ccc(O)cc1)C(=O)N[C@@H](Cc1c[nH]cn1)C(=O)N1CCC[C@H]1C(=O)N[C@H](Cc1ccccc1)C(=O)O)C(C)C [compound 28] | 82.9 | 91.4 | 24.6 | inactive |  |  |  |
| CC[C@H](C)[C@H](NC(=O)[C@H](Cc1c(F)cc(O)cc1F)NC(=O)[C@@H](NC(=O)[C@H](CCCNC(=N)N)NC(=O)CNC)C(C)C)C(=O)N[C@@H](Cc1c[nH]cn1)C(=O)N1CCC[C@H]1C(=O)N[C@H](C)C(=O)O [compound 71] | 52.7 | 81.7 |  | inactive | Inactive |  |  |
| CNCC(=O)N[C@@H](CCCNC(=N)N)C(=O)N[C@H](C(=O)N[C@@H](Cc1ccc(O)cc1)C(=O)N[C@@H](Cc1c[nH]cn1)C(=O)N[C@@H](Cc1c[nH]cn1)C(=O)N1CCC[C@H]1C(=O)N[C@@H](C)C(=O)O)C(C)C [compound 22] | 54.5 | 74.3 | 5.2 | inactive |  |  |  |
| CNCC(=O)N[C@@H](CCCNC(=N)N)C(=O)N[C@H](C(=O)N[C@@H](Cc1ccc(O)cc1)C(=O)N[C@H](C(=O)N[C@@H](Cc1c[nH]cn1)C(=O)N1CCC[C@H]1C(=O)N[C@@H](C)C(N)=O)C(C)C)C(C)C [compound 8] | 36.9 | 41.8 | 11.3 | inactive |  |  |  |
| CC[C@H](C)[C@H](NC(=O)[C@H](Cc1ccc(O)cc1)NC(=O)[C@@H](NC(=O)[C@@H](N)CCCNC(=N)N)C(C)C)C(=O)N[C@@H](Cc1c[nH]cn1)C(=O)N1CCC[C@H]1C(N)=O [compound 13] | 43.4 | 165.3 |  | inactive | Inactive |  |  |
| CC[C@H](C)[C@H](NC(=O)[C@H](Cc1ccc(O)c([N+](=O)[O-])c1)NC(=O)[C@@H](NC(=O)[C@H](CCCNC(=N)N)NC(=O)CNC)C(C)C)C(=O)N[C@@H](Cc1c[nH]cn1)C(=O)N1CCC[C@H]1C(=O)N[C@H](C)C(=O)O [compound 72] | 62.6 | 88.6 |  | inactive | Inactive |  |  |
| CC[C@H](C)[C@H](NC(=O)[C@H](Cc1c(C)cc(O)cc1C)NC(=O)[C@@H](NC(=O)[C@H](CCCNC(=N)N)NC(=O)CNC)C(C)C)C(=O)N[C@@H](Cc1c[nH]cn1)C(=O)N1CCC[C@H]1C(=O)N[C@H](C)C(=O)O [compound 68] | 39.2 | 59.2 | 21.2 | inactive |  | 25 |  |
| CN[C@@H](CCC(=O)O)C(=O)N[C@@H](CCCNC(=N)N)C(=O)N[C@H](C(=O)N[C@@H](Cc1ccc(O)cc1)C(=O)N[C@@H](Cc1ccccc1)C(=O)N[C@@H](Cc1c[nH]cn1)C(=O)N1CCC[C@H]1C(N)=O)C(C)C [compound 66] | 30.56 | 58.54 |  | inactive | Inactive |  |  |
| CNCC(=O)N[C@@H](CCCNC(=N)N)C(=O)N[C@H](C(=O)N[C@@H](Cc1ccc(O)cc1)C(=O)N[C@@H](Cc1ccccc1)C(=O)N[C@@H](Cc1c[nH]cn1)C(=O)N1CCC[C@H]1C(=O)N[C@@H](C)C(=O)O)C(C)C [compound 21] | 64.4 | 82.7 |  | inactive | Inactive |  |  |
| CC[C@H](C)[C@H](NC(=O)[C@H](Cc1ccc(O)cc1)NC(=O)[C@@H](NC(=O)[C@H](CCCNC(=N)N)NC(=O)CNC)C(C)C)C(=O)N[C@@H](Cc1c[nH]cn1)C(=O)N1CCC[C@H]1C(=O)N[C@H](C)C(=O)O [compound 27] | 58.1 | 84.2 |  | inactive | Inactive |  |  |
| CNCC(=O)N[C@@H](CCCNC(=N)N)C(=O)N[C@H](C(=O)NCC(=O)N[C@H](C(=O)N[C@@H](Cc1c[nH]cn1)C(=O)N1CCC[C@H]1C(=O)NCC(=O)O)C(C)C)C(C)C [compound 5] | 39.4 | 61.7 | 24.8 |  |  |  | 18.1 |
| CNCC(=O)N[C@@H](CCCNC(=N)N)C(=O)N[C@H](C(=O)N[C@@H](Cc1ccc(O)cc1)C(=O)N[C@H](C(=O)N[C@@H](Cc1c[nH]cn1)C(=O)N1CCC[C@H]1C(=O)N[C@@H](C)C(=O)O)[C@@H](C)OC)C(C)C [compound 30] | 68.2 | 80.4 |  | inactive | Inactive |  |  |
| CNCC(=O)N[C@@H](CCCNC(=N)N)C(=O)N[C@H](C(=O)N[C@@H](Cc1ccc(O)c(Cl)c1)C(=O)N[C@H](C(=O)N[C@@H](Cc1c[nH]cn1)C(=O)N1CCC[C@H]1C(=O)N[C@@H](C)C(=O)O)[C@@H](C)OC)C(C)C [compound 79] | 64.8 | 93.6 |  | inactive | Inactive |  |  |
| C=CCOc1ccc(C[C@H](NC(=O)[C@@H](NC(=O)[C@H](CCCNC(=N)N)NC(=O)CNC)C(C)C)C(=O)N[C@H](C(=O)N[C@@H](Cc2c[nH]cn2)C(=O)N2CCC[C@H]2C(=O)N[C@H](C)C(=O)O)[C@@H](C)CC)cc1 [compound 76] | 43.0 | 55.5 |  | inactive | Inactive |  |  |
| CNCC(=O)N[C@@H](CCCNC(=N)N)C(=O)N[C@H](C(=O)N[C@@H](Cc1ccc(O)cc1)C(=O)N[C@H](C(=O)N[C@@H](Cc1c[nH]cn1)C(=O)N1CCC[C@H]1C(=O)N[C@H](C)C(=O)O)[C@@H](C)OC)C(C)C [compound 84] | 50.5 | 80.6 |  | inactive | Inactive |  |  |
| CNCC(=O)N[C@@H](CCCNC(=N)N)C(=O)N[C@H](C(=O)N[C@@H](Cc1ccc(O)c(O)c1)C(=O)N[C@H](C(=O)N[C@@H](Cc1c[nH]cn1)C(=O)N1CCC[C@H]1C(=O)N[C@@H](C)C(=O)O)[C@@H](C)OC)C(C)C [compound 77] | 97.5 | 110.5 |  | inactive | Inactive |  |  |
| CC[C@H](C)[C@H](NC(=O)[C@@H]1CCCN1C(=O)[C@H](Cc1c[nH]cn1)NC(=O)[C@@H](NC(=O)[C@@H](NC(=O)[C@@H](NC(=O)[C@H](CCCNC(=N)N)NC(=O)CNC)C(C)C)[C@@H](C)CC)C(C)C)C(=O)O [compound 3] | 36.5 | 67.1 | 19.6 | inactive |  |  |  |
| CC[C@H](C)[C@H](NC(=O)[C@H](Cc1ccc(O)cc1)NC(=O)[C@@H](NC(=O)[C@H](CCCNC(=N)N)NC(=O)[C@H](C)NC)C(C)C)C(=O)N[C@@H](Cc1c[nH]cn1)C(=O)N1CCC[C@H]1C(=O)N[C@H](C)C(=O)O [compound 44] | 47.3 | 71.9 | 14.6 | inactive |  |  |  |
